Experimental data reported in ChEMBL document CHEMBL1150386 (J Med Chem, 2008).

Columns and labels:
Acetylcholinesterase [1] = target: T1, Acetylcholinesterase (Homo sapiens, UniProt P22303)
Acetylcholinesterase [2] = target: T1, Acetylcholinesterase; experiment: Inhibition of human recombinant AChE

`CC(=O)N(CCCCNc1c2c(nc3ccccc13)CCCC2)CCCSc1c2c(nc3ccccc13)CCCC2` was tested. Which Ki (Acetylcholinesterase [1]) did it give?
Its Ki is 27.9 nM.

What about the Ki (Acetylcholinesterase [2]) of the same compound?
The Ki was 20.9 nM.
